Patent EP4635958A1, “PYRIMIDINE-CONTAINING POLYCYCLIC DERIVATIVE INHIBITOR, AND PREPARATION METHOD THEREFOR AND USE THEREOF” (Shanghai Hansoh Biomedical Co., Ltd., priority 2022, dated 2024)

By UniProt entry, the sequences of proteins in these tests, tags left out. Residues count along the entry.
UniProt P01116, 1-188 isoform 2: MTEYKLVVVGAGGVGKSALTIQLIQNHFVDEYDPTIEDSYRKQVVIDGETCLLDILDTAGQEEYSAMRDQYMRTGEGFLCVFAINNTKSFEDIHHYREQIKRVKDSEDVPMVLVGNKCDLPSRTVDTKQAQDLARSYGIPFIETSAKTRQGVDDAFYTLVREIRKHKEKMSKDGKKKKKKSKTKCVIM
UniProt P01116, 1-188 isoform 2 G12D: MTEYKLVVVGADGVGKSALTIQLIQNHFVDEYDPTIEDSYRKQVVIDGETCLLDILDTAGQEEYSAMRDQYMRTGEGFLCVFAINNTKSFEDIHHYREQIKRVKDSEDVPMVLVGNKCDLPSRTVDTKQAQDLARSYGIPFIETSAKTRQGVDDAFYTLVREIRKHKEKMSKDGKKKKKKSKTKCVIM

Assays:
[1] = system: GP2D; test: Inhibition of proliferation of KRAS G12D mutant tumor cell line GP2D (CellTiter-Glo); conditions: read-out: GP2D IC50, about 72 h
[2] = biological target: KRAS WT (Homo sapiens, UniProt P01116); test: KRAS WT biochemical assay (Table 1, no method of its own); conditions: read-out: KRAS WT Biochemical IC50
[3] = biological target: KRAS G12D-SOS1 (Homo sapiens, UniProt P01116, G12D); test: Blocking of KRAS G12D-SOS1 protein binding (Cisbio KRAS-G12D/SOS1 Binding Assay Kit, time-resolved fluorescence); conditions: read-out: G12D SOS1 biochemical IC50; KRAS G12D-GTP and SOS1 protein, signal ratio 665nm/620nm
Description: • 1. Experimental objective: The purpose of this test example is to test the ability of the compounds to block the binding of KRAS G12D and SOS1 proteins. • 2. Experimental reagents and instruments
The centrifuge (5810R) was purchased from Eppendorf; the pipette was purchased from Eppendorf or Rainin; and the microplate reader was purchased from BioTek (United States) with a model of SynergyH1 multifunctional microplate reader.
KRAS-G12D/SOS1 Binding Assay Kit was purchased from Cisbio, with a catalog number of 63ADK000CB17PEG; GTP was purchased from Sigma, with a catalog number of G8877; 384-well plate was purchased from Perkin Elmer, with a catalog number of 6007299.
The Diluent buffer in the kit was used to dilute the compound into 10× compound solution of different concentrations, and 2 uL was added to each well of the 384-well plate. […] The plate was read using the time-resolved fluorescence program of the Biotek Synergy H1 instrument to detect fluorescence values at emission wavelengths of 665 nm and 620 nm.
The signal ratio (665nm/620nm*10,000) was calculated, and the nonlinear fitting of the signal ratio and sample concentration was performed using a fourparameter equation in GraphPad Prism 6 to obtain the IC50 value.

[4] = system: p-ERK in AsPC-1 cells; test: Inhibition of p-ERK in AsPC-1 cells (LANCE Ultra phospho-ERK1/2 kit); conditions: read-out: AsPC-1_pERK IC50, 2 h with compound
Protocol: 1. Experimental objective: The inhibition activity of the example compounds on the phosphorylated ERK level in KRAS G12D mutant cells AsPC-1 was determined. 2. Experimental instruments: • 2.1 Instruments: Microplate reader (BioTek Synergy H1); Pipette (Eppendorf & Rainin) • 2.2 Reagents: Phosphorylated ERK1/2 (T202-Y204) LANCE Ultra Cellular Detection Kit was purchased from PerkinElmer, with a catalog number of TRF4000M; DMEM was purchased from Gibco, with a catalog number of 11995065; FBS was purchased from Gibco, with a catalog number of 10091148; PBS was purchased from Gibco, with a catalog number of 10010023; trypsin was purchased from Gibco, with a catalog number of 25200056; cell culture plates were purchased from Corning Company, with a catalog number of 3610; White opaque OptiPlate™-384 plates were purchased from PerkinElmer, with a catalog number of 6007290. 3. […] The plate was read using BioTek Synergy H1 and the signal values at the emission wavelengths of 620 nm and 665 nm were detected using a time-resolved fluorescence program. […] Experimental data processing method: The ratio of the signal values at the emission wavelengths of 665 nm and 620 nm was calculated, and the inhibition rate was calculated using the ratio. […]

Row | SMILES | IC50 [1] | IC50 [2] | IC50 [3] | IC50 [4]
1 | C#Cc1c(F)ccc2cc(O)cc(-c3nc4c5c(nc(OCC6(CN7CC8CCC7CC8=C(F)F)CC6)nc5c3F)N3C[C@H]5CC[C@H](N5)[C@H]3CO4)c12 (single isomer, unassigned) [Example 3-1] | 1 nM | 62 nM | 2.2 nM | 2 nM
2 | C#Cc1c(F)ccc2cc(O)cc(-c3nc4c5c(nc(OCC6(CN7CC8CCC7CC8=C(F)F)CC6)nc5c3F)N3C[C@H]5CC[C@H](N5)[C@H]3CO4)c12 (single isomer, unassigned) [Example 3-2] | 1.2 nM | 40 nM | 3.9 nM | 1.6 nM
